These results are taken from PMC9857240, “The Nuclear Transporter Importin 13 Can Regulate Stress-Induced Cell Death through the Clusterin/KU70 Axis” (Cells, 2023).

The target in this experiment is T1, biotinylated GST-IPO13 (UniProt Q8K0C1 1-963, biotinylated).
T1 construct: Importin 13; also called pGEX4T2-IPO13; source: E. coli BL21, purified (glutathione agarose beads), biotinylated
T1 sequence (looked up): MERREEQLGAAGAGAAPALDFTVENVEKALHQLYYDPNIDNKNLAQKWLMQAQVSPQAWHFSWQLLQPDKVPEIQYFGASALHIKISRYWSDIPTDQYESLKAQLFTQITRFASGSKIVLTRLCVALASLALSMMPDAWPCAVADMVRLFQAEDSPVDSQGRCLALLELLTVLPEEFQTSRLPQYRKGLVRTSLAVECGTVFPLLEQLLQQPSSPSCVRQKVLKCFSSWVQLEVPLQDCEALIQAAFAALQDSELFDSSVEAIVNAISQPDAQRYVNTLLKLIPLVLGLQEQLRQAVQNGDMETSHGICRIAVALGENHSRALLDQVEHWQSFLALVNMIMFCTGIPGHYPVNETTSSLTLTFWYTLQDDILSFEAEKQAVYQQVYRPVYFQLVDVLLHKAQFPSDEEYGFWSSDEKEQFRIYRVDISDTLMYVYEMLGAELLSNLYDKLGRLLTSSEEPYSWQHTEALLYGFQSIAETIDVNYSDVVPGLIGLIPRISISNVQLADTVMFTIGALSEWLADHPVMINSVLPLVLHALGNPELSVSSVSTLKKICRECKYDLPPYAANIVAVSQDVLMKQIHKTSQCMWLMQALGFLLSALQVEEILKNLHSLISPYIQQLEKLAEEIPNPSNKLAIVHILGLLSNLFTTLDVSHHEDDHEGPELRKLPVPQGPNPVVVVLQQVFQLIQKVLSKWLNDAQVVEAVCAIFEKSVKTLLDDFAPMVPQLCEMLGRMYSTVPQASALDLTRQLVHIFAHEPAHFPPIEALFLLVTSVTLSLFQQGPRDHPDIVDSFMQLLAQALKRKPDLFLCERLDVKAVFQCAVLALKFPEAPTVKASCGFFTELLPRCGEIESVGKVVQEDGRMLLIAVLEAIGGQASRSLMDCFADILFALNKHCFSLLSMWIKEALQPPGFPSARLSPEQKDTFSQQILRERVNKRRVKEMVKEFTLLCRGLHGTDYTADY
The experiment can be described thus: AlphaScreen or HTRF; 30 nM His6-GFP fusion protein with 0-60 nM biotinylated GST-IPO13; triplicates, sigmoidal association curves. As to conditions: both partners purified. A general note: Bead proximity is the source of the signal in Alpha formats.

B1: His6-GFP-KU70 (natural protein, UniProt P12956 1-609, looked up)
chain: MSGWESYYKTEGDEEAEEEQEENLEASGDYKYSGRDSLIFLVDASKAMFESQSEDELTPFDMSIQCIQSVYISKIISSDRDLLAVVFYGTEKDKNSVNFKNIYVLQELDNPGAKRILELDQFKGQQGQKRFQDMMGHGSDYSLSEVLWVCANLFSDVQFKMSHKRIMLFTNEDNPHGNDSAKASRARTKAGDLRDTGIFLDLMHLKKPGGFDISLFYRDIISIAEDEDLRVHFEESSKLEDLLRKVRAKETRKRALSRLKLKLNKDIVISVGIYNLVQKALKPPPIKLYRETNEPVKTKTRTFNTSTGGLLLPSDTKRSQIYGSRQIILEKEETEELKRFDDPGLMLMGFKPLVLLKKHHYLRPSLFVYPEESLVIGSSTLFSALLIKCLEKEVAALCRYTPRRNIPPYFVALVPQEEELDDQKIQVTPPGFQLVFLPFADDKRKMPFTEKIMATPEQVGKMKAIVEKLRFTYRSDSFENPVLQQHFRNLEALALDLMEPEQAVDLTLPKVEAMNKRLGSLVDEFKELVYPPDYNPEGKVTKRKHDNEGSGSKRPKVEYSEEELKTHISKGTLGKFTVPMLKEACRAYGLKSGLKKQELLEALTKHFQD
notes: KU70 (XRCC6), PCR-amplified from pentr322-KU70, via pDONR207 into pGFP-attC; also called His6-tagged GFP-KU70; source: E. coli BL21 pRep4, purified (Ni-NTA under 8 M urea, renatured on the column, size exclusion FPLC)
In general, Kd refers to the equilibrium constant for the complex coming apart. High values mean a looser complex, low ones a tighter complex. Turning to B1, the affinity, expressed as Kd, was 7.3 nM.
